The target of assay [1] is BCL-2 binding to biotinylated BAD peptide (Homo sapiens (Human), UniProt P10415). Description: SPR (Biacore) solution inhibition assay, BCL-2 binding to BAD peptide surface. The note with it: read-out: BCL2_SPR IC50 BAD; high and low IC50 values from multiple experiments; 56 nM BCL-2, BAD peptide sensor surface, 25° C. Background: In SPR one partner is held on a chip, and binding of the other changes the refractive index at the surface.

Chains of the proteins cited; added tags and fusions are not shown.
UniProt P10415, whole entry: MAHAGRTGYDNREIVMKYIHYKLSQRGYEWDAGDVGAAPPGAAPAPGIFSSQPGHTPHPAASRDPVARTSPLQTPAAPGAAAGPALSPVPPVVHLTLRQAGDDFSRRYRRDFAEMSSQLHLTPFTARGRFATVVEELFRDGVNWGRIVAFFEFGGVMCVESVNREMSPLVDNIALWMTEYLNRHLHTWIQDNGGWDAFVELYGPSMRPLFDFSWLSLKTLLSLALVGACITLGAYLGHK

The target in assay [2] is BCL-2 binding to biotinylated BAK peptide (Homo sapiens (Human), UniProt P10415). Description: SPR (Biacore) solution inhibition assay, BCL-2 binding to BAK peptide surface. The note with it: read-out: BCL2_SPR IC50 BAK; high and low IC50 values from multiple experiments; 56 nM BCL-2, BAK peptide sensor surface, 25° C.

The IC50 is the concentration that inhibits the measured activity by half. With `CCCCN(CCCC)C(=O)c1cc(C)n(-c2ccc(NS(=O)(=O)c3cn(C)cn3)cc2C(=O)N2Cc3ccccc3C[C@H]2CO)n1`, in assay [1], the half-inhibitory concentration (IC50) lay within 636 to 644 nM.
For the molecule `CCCCN(CCCC)C(=O)c1cc(C)n(-c2ccc(NS(=O)(=O)c3c(C)nn(C)c3C)cc2C(=O)N2Cc3ccccc3C[C@H]2CO)n1`, the results for the IC50 in assay [1] and in assay [2] were 622 to 682 nM and 441 to 492 nM, respectively.
Turning to `CCCCN(CCCC)C(=O)c1cc(C)n(-c2ccc(NS(=O)(=O)c3ccc(-c4noc(C)n4)cc3)cc2C(=O)N2Cc3ccccc3C[C@H]2CO)n1`, the IC50 in assay [2] fell in the range of 636 to 646 nM.
For the molecule `CCCCN(CCCC)C(=O)c1cc(C)n(-c2ccc(NS(=O)(=O)c3ccc(Oc4ccc(C)cc4)cc3)cc2C(=O)N2Cc3ccccc3C[C@H]2CO)n1`, the concentration for half-maximal inhibition (IC50) in assay [1] and in assay [2] was above 16000 nM each time.
On to `CCCCN(CCCC)C(=O)c1cc(C)n(-c2ccc(NS(=O)(=O)c3ccccc3F)cc2C(=O)N2Cc3ccccc3C[C@H]2CO)n1`, for which the IC50 in assay [2] lay within 304 to 326 nM.
The same measure, in the same setting: the result for `CCCCN(CCCC)C(=O)c1cc(C)n(-c2ccc(NS(=O)(=O)CCc3cccc4ccccc34)cc2C(=O)N2Cc3ccccc3C[C@H]2CO)n1` reads 509 to 549 nM.
In the case of `CCCCN(CCCC)C(=O)c1cc(C)n(-c2ccc(NS(=O)(=O)c3ccccc3[N+](=O)[O-])cc2C(=O)N2Cc3ccccc3C[C@H]2CO)n1`, the IC50 in assay [1] fell in the range of 264 to 277 nM; in assay [2], 222 to 288 nM.
Take `CCCCN(CCCC)C(=O)c1cc(C)n(-c2ccc(NS(=O)(=O)c3ccc(-c4cc(Cl)cc(Cl)c4)cc3)cc2C(=O)N2Cc3ccccc3C[C@H]2CO)n1`: the 50% inhibitory concentration (IC50) in assay [1] was in the range of 6820 to 7740 nM.
As for `CCCCN(CCCC)C(=O)c1cc(C)n(-c2ccc(NS(=O)(=O)CCN3C(=O)c4ccccc4C3=O)cc2C(=O)N2Cc3ccccc3C[C@H]2CO)n1`, in assay [1], the half-maximal inhibitory concentration (IC50) lay within 272 to 320 nM.
Regarding `CCCCN(CCCC)C(=O)c1cc(C)n(-c2ccc(NS(=O)(=O)c3ccc(Oc4ccc(F)cc4)cc3)cc2C(=O)N2Cc3ccccc3C[C@H]2CO)n1`, the results for the IC50 in assay [1] and in assay [2] were 4800 to 6030 nM and 3250 to 3820 nM, respectively.
As for `CCCCN(CCCC)C(=O)c1cc(C)n(-c2ccc(NS(=O)(=O)c3cccc(-c4ccn(C)n4)c3)cc2C(=O)N2Cc3ccccc3C[C@H]2CO)n1`, the IC50 in assay [2] lay in the range of 3510 to 3610 nM.
In the case of `CCCCN(CCCC)C(=O)c1cc(C)n(-c2ccc(NS(=O)(=O)c3sc4ccc(F)cc4c3C)cc2C(=O)N2Cc3ccccc3C[C@H]2CO)n1`, the IC50 in assay [2] lay in the range of 788 to 881 nM.
For the molecule `CCCCN(CCCC)C(=O)c1cc(C)n(-c2ccc(NS(=O)(=O)c3cccc4nonc34)cc2C(=O)N2Cc3ccccc3C[C@H]2CO)n1`, the IC50 in assay [1] lay in the range of 251 to 293 nM.
With `CCCCN(CCCC)C(=O)c1cc(C)n(-c2ccc(NS(=O)(=O)c3ccc4c(c3)OCCO4)cc2C(=O)N2Cc3ccccc3C[C@H]2CO)n1`, in assay [1], the half-inhibitory concentration (IC50) was 593 to 670 nM.
`CCCCN(CCCC)C(=O)c1cc(C)n(-c2ccc(NS(=O)(=O)c3ccsc3C(=O)OC)cc2C(=O)N2Cc3ccccc3C[C@H]2CO)n1`: the IC50 lay within 475 to 485 nM in assay [1] and 286 to 299 nM in assay [2].
Consider `CCCCN(CCCC)C(=O)c1cc(C)n(-c2ccc(NS(=O)(=O)c3ccc(C(=O)OC)o3)cc2C(=O)N2Cc3ccccc3C[C@H]2CO)n1`, for which, in assay [1], the IC50 was 542 to 627 nM.
Regarding `CCCCN(CCCC)C(=O)c1cc(C)n(-c2ccc(NS(=O)(=O)c3cc([N+](=O)[O-])ccc3C)cc2C(=O)N2Cc3ccccc3C[C@H]2CO)n1`, the IC50 in assay [2] was 479 to 582 nM.
Take `CCCCN(CCCC)C(=O)c1cc(C)n(-c2ccc(NS(=O)(=O)c3scc(C(=O)OC)c3OC)cc2C(=O)N2Cc3ccccc3C[C@H]2CO)n1`: the concentration for half-maximal inhibition (IC50) in assay [1] lay in the range of 631 to 633 nM.
For `CCCCN(CCCC)C(=O)c1cc(C)n(-c2ccc(NS(=O)(=O)c3cc(S(=O)(=O)c4ccccc4)cs3)cc2C(=O)N2Cc3ccccc3C[C@H]2CO)n1`, the IC50 in assay [1] fell in the range of 791 to 808 nM; in assay [2], 661 to 690 nM.
As for `CCCCN(CCCC)C(=O)c1cc(C)n(-c2ccc(NS(=O)(=O)c3cccc(Cl)c3Cl)cc2C(=O)N2Cc3ccccc3C[C@H]2CO)n1`, in assay [1], the IC50 lay within 493 to 494 nM.
`CCCCN(CCCC)C(=O)c1cc(C)n(-c2ccc(NS(=O)(=O)c3ccccc3C(=O)OC)cc2C(=O)N2Cc3ccccc3C[C@H]2CO)n1`: the half-inhibitory concentration (IC50) in assay [2] lay within 310 to 311 nM.
Consider `CCCCN(CCCC)C(=O)c1cc(C)n(-c2ccc(NS(=O)(=O)c3ccc(-c4ccn(C)n4)cc3)cc2C(=O)N2Cc3ccccc3C[C@H]2CO)n1`, for which the IC50 in assay [2] was 727 to 787 nM.
For `CCCCN(CCCC)C(=O)c1cc(C)n(-c2ccc(NS(=O)(=O)c3ccc(-c4cnco4)cc3)cc2C(=O)N2Cc3ccccc3C[C@H]2CO)n1`, in assay [1], the IC50 was 863 to 906 nM.
